This assay concerns the target human orexin receptor 1 (Homo sapiens (Human), UniProt O43613). Kind of assay: Orexin antagonist activity, intracellular calcium FLIPR assay (orexin receptor 1). The format is cell-based. The following applies: RBL-2H3 cells stably expressing human orexin receptor 1; Ca2+ dye FLIPR; compound 15 minutes before orexin-A at approximately 80% maximal response; read-out: Human Orexin1R IC50. How it is done:
Orexin antagonist activity was determined by measuring changes in intracellular calcium levels using a Ca^2+ sensitive fluorescent dye. The changes in fluorescent signal were monitored by Fluorescent Imaging Plate Reader (FLIPR™) technology available from Molecular Devices, LLC, U.S.A. Orexin mediated increases in intracellular Ca^2+ concentration were readily detected upon activation with orexin-A. Twenty-four hours prior to the assay, RBL-2H3 cells stably expressing either human orexin receptor 1 or human orexin receptor 2 were seeded in cell culture medium in black, clear-bottom 384-well plates (commercially available from Corning Inc., U.S.A.) and grown overnight at 37° C., 5% CO2. On the day of the assay, cell culture media was removed and cells were loaded with Calcium 5 Dye (commercially sold by Molecular Devices, LLC, U.S.A.) for 1 hour at 37° C., 5% CO2. Test compounds (at 10 point half log concentration response curves from 10 μM) were added to cells for 15 minutes prior to the addition of orexin-A to all wells, to achieve a final concentration that produces approximately an 80% maximal response. The IC50 values were determined from ten point concentration response curves. Curves were generated using the average of two wells for each data point.
(Calcium assays in cells follow changes in intracellular calcium, usually with a dye or a luminescent sensor.)

Sequences of proteins named here, by UniProt entry; tags and fusion partners are left off.
UniProt O43613, whole entry: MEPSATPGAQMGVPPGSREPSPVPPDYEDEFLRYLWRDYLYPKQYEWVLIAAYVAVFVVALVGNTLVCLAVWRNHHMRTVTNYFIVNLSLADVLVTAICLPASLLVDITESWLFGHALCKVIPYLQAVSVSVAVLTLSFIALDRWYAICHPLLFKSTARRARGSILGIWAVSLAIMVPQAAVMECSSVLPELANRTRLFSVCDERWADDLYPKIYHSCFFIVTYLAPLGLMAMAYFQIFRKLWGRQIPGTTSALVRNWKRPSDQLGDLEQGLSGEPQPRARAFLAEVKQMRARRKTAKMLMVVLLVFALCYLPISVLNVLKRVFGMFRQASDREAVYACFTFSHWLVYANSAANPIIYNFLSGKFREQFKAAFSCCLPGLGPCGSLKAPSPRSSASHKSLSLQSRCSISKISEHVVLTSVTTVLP

IC50 data for one substance are collected here from patent publication US9493432B2, “Cyclopentylbenzamide derivatives and their use for the treatment of psychotic and cognitive disorders” (Takeda Pharmaceutical Company Limited, priority 2013, dated 2016).

A word on the IC50: it is the point on the concentration scale where inhibition reaches its midpoint. As for “5-Methyl-N-((1S,2S)-2-(quinoxalin-2-ylamino)cyclopentyl)-2-(2H-1,2,3-triazol-2-yl) benzamide [Example 21]”, the concentration for half-maximal inhibition (IC50) came out at 18 nM.
